Measurements as given in ChEMBL document CHEMBL1770143, “Biological evaluation of 3'-O-alkylated analogs of salacinol, the role of hydrophobic alkyl group at 3' position in the side chain on the α-glucosidase inhibitory activity” (Bioorg Med Chem Lett, 2011).

Chains of the proteins cited; added tags and fusions are not shown. Residues count along the entry.
UniProt P23739, 1014-1841 limits assumed: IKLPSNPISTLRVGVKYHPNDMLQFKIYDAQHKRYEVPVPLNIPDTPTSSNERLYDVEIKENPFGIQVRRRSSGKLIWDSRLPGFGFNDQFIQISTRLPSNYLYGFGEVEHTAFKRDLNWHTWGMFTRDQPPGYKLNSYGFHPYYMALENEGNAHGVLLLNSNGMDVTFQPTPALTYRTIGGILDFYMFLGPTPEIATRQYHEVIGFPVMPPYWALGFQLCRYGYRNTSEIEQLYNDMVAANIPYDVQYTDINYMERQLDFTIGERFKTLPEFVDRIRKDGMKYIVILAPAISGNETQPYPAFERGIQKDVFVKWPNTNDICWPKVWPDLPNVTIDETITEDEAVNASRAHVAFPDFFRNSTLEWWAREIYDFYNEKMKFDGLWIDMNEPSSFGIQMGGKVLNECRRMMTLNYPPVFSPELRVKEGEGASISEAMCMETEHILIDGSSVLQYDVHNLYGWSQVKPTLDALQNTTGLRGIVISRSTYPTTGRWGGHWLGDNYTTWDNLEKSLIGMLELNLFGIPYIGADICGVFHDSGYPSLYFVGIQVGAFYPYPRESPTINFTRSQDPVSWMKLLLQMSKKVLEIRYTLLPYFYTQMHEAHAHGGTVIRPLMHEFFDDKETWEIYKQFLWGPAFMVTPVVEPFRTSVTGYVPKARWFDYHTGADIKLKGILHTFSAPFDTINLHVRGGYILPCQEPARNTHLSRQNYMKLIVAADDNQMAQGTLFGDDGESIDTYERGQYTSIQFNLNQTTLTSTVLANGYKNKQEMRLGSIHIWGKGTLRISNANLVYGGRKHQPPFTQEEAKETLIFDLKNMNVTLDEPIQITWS
UniProt P23739, 1-1013 limits assumed: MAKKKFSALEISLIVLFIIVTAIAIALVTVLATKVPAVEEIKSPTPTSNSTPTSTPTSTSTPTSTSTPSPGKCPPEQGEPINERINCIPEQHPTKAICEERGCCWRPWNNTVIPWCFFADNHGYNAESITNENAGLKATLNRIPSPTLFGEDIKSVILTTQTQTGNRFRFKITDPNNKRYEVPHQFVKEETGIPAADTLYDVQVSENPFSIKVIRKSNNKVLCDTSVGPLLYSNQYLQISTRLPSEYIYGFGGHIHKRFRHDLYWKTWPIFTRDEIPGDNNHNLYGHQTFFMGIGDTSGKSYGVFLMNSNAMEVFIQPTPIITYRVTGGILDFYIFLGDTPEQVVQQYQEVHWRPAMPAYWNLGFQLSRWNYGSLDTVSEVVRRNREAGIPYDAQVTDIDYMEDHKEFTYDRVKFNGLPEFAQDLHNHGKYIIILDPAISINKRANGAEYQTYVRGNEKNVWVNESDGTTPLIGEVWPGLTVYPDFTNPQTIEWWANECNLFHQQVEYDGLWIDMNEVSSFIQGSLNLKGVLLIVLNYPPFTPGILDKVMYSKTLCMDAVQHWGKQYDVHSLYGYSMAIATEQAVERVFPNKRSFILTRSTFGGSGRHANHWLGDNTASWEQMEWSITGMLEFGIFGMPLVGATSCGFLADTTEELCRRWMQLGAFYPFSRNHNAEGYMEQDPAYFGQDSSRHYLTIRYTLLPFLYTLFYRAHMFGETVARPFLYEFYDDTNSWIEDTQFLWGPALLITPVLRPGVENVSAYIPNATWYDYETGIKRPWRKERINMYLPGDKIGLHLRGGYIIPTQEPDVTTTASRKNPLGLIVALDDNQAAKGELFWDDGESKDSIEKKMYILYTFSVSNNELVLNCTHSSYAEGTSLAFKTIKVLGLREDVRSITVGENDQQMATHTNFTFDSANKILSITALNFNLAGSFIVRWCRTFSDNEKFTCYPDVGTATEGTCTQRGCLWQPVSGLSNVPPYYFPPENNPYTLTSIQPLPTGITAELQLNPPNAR

Target: Sucrase-isomaltase, intestinal (Rattus norvegicus, UniProt P23739)
Assay: Inhibition of rat small intestinal sucrase after 30 mins by glucose-oxidase method
How it was run: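 Enzyme source was rat small-intestinal brush border membrane vesicles suspended in 0.1 M maleate buffer, pH 6.0. Substrate solutions, prior to mixing, were maltose 74 mM (maltase), sucrose 74 mM (sucrase) and isomaltose 7.4 mM (isomaltase). Substrate, inhibitor and enzyme were incubated at 37 °C for 30 min, then stopped by 2 min boiling. Released glucose was measured by glucose oxidase. Final DMSO was 2.5%.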

IC50: 1500 nM
Structure (SMILES): C[C@H]1O[C@H](O[C@H]2[C@H](O)[C@@H](O)[C@@H](O[C@H]3[C@H](O)[C@@H](O)C(O)O[C@@H]3CO)O[C@@H]2CO)[C@H](O)[C@@H](O)[C@@H]1N[C@H]1C=C(CO)[C@@H](O)[C@H](O)[C@H]1O (stereo partly specified) [ACARBOSE]
